Literature values in US6747008B1, “Methods for treating and preventing alopecia” (University of Southern California, priority 2000, dated 2004).

Molecular target: T1, AT2 receptor (Homo sapiens, UniProt P50052)
T1 sequence (P50052 1-363): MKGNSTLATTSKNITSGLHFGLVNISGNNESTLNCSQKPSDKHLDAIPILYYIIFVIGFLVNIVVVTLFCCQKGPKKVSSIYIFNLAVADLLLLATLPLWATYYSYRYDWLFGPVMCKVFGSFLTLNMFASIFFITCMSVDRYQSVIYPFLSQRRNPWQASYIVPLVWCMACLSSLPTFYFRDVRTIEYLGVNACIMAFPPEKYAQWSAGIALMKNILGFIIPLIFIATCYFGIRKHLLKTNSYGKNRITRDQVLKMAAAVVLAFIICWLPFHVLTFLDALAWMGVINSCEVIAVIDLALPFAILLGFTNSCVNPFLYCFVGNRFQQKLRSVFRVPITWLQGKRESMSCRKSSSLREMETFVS
Conditions: experimental models tested; cited from earlier work

In the case of “Asp-Arg-Val-Tyr-Ile-Xaa-Pro-Phe [p-aminophenylalanine6-AII]”, the binding characteristics is given as “comparable to AT2 antagonists”.
